Experimental findings from US9598424B2 (Takeda Pharmaceutical Company Limited, priority 2014, dated 2017) are described below.

By UniProt entry, the sequences of proteins in these tests, tags left out.
UniProt Q9UHD2, whole entry: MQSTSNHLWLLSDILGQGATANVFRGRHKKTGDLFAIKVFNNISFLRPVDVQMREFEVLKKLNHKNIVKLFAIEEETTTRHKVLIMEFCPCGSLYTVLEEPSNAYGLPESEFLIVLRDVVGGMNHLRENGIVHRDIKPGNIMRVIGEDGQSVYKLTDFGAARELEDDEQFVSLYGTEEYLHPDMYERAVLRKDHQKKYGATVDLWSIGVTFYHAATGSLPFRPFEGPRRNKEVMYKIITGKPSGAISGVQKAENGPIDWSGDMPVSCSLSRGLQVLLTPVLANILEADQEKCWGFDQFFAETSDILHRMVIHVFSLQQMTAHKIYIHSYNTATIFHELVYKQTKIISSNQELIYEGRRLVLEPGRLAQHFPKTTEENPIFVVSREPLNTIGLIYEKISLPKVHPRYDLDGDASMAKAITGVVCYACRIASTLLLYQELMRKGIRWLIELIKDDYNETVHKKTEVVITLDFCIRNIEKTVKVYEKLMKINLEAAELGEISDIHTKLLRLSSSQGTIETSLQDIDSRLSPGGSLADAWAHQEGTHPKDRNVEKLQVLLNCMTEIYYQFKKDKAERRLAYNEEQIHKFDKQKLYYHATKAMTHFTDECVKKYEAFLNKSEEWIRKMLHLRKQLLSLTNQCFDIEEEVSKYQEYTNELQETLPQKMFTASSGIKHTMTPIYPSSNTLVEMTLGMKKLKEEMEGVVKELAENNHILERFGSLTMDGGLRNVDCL

In one experiment the target is Full length human TBK1 (Homo sapiens, UniProt Q9UHD2). The experiment is described as follows: Inhibition of TBK1 Enzyme (Caliper microfluidic assay). Particulars: 25 μM ATP, 60 min at RT; -log(IC50), IC50 molar; tested form: TFA. Here is the method: Full length human TBK1 with an N-terminal His-tag was cloned into the pFastBacl vector and was transfected into Sf9 cells. 72 hours later the virus was harvested and amplified through two additional rounds of infections. Then 400 ml of the resulting virus stock was used to infect 10L of Sf9 cells at a density of 2×10^6 cells/ml. Cell pellets were harvested 48 hours post infection and were lysed by freeze-thaw, homogenization and sonication in binding buffer (25 mM Tris pH7.6, 1 M NaCl, 10 mM imidazole, 0.5 mM TCEP) plus 0.1% Triton X-100 and complete protease inhibitor cocktail. The lysate was spun and the supernatant was purified with a HisTrap FF crude and a Superdex 200 pg column.
TBK1 inhibition is determined using a 384 well plate format in buffer containing 20 mM Hepes, pH 7.4, 10 mM MgCl2, 1 mM EDTA, 0.01% Brij-L23, 1 mM DTT. Each test compound is prepared in DMSO using 2.5-fold serial dilutions for 11 data points, which are added to the buffer so that each dilution contains 1% DMSO. To each well is added 2 μL of 1 μm 5FAM-DRHDSGLDSMKDE-NH2 (in buffer), 2 μL of diluted test compound (1% DMSO in buffer), and 5 μL of 3 nM TBK1 and 25 μM ATP (in buffer). The reaction mixture is incubated at RT for 60 min, and quenched by adding 20 mM Hepes, pH 7.4, 10 mM MgCl2, 1 mM EDTA, 0.01% Brij-L23, 1 mM DTT+25 mM EDTA. To quantify the fluorescent-labeled substrate and product following reaction, the test plate is loaded on a Caliper LC-3000, which measures percent of conversion by microfluidic-based separation. Corresponding IC50 values are calculated by non-linear curve fitting of the compound concentrations and percent of inhibition to the standard IC50 equation and reported as pIC50, i.e., −log(IC50), where IC50 is the molar concentration.

The next experiment deals with TBK1 (Homo sapiens, UniProt Q9UHD2). The experiment in a line: Inhibition of TBK1 in Cells (TLR3 driven ISRE β-lactamase reporter assay). The following applies: poly IC-LMW stimulation 16 hrs; -log(EC50), EC50 molar; tested form: TFA. Here is the method:
TBK1 inhibition is determined using a TLR3 driven RA1-ISRE β-lacatamase reporter assay (Life Technologies). In the assay 50,000 cells/well are plated in black clear bottom 384 well plate. Each test compound is prepared in DMSO using 2.5-fold serial dilutions for 11 data points, which are then added to the media. Cells are stimulated with 0.15 mg/ml poly IC-LMW (Invivogen) for 16 hrs. Reporter activity is detected using the LiveBLAzer-FRET B/G CCF4-AM substrate (Life Technologies) and the plate is read using the Spectramax M5 instrument. Corresponding EC50 values are calculated by non-linear curve fitting of the compound concentrations and percent of inhibition to the standard EC50 equation and reported as pEC50, i.e., −log(EC50), where EC50 is the molar concentration.
In general terms: A reporter such as luciferase makes a cellular process visible.

`O=C(Nc1cn2cc(-c3csc(C(=O)N4CCC[C@@H]4C(F)(F)F)n3)ncc2n1)C1CC1`: the “TBK1 Inhibition (pIC50)” value on Full length human TBK1 is 7.2. For the same compound, the “Inhibition of TBK1 in cells pEC50 (EC)” value on TBK1 is on record as 7.06.
Take `O=C(N[C@H]1CCCOC1)c1nc(-c2cn3cc(NC(=O)C4CC4)nc3cn2)cs1`: the “TBK1 Inhibition (pIC50)” value on Full length human TBK1 was 7.3. For the same compound, at TBK1, the “Inhibition of TBK1 in cells pEC50 (EC)” value amounted to 5.70.
The like results for `O=C(N[C@H]1CCCC[C@H]1O)c1nc(-c2cn3cc(NC(=O)C4CC4)nc3cn2)cs1` were, in that order, 7.4 and 5.90.
The like results for `O=C(N[C@H]1CCOC1)c1nc(-c2cn3cc(NC(=O)C4CC4)nc3cn2)cs1` were, in that order, 7.1 and 5.50.
